# ALDH1A1 block – ALDH1A1 (human) enzyme inhibition; Purified ALDH1A1, NADH fluorescence, propionaldehyde substrate; Potency, µM (doses to about 75.3 µM), without a hit: top-dose activity, negative = inhibition, most hits filed as inhibitors; P00352; 7.3% of 220,000 active; active means well fitted inhibition curve with a large enough effect, not every such curve was filed as active; inconclusive means small, poorly fitted or top-dose-only effect, or another doubt; inactive means no such curve, though single readings can be large or run the other way;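 further: potency means the concentration at half of the fitted maximal effect; plate controls were no enzyme wells and a reference inhibitor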
# Sfp inh – qHTS Assay for Inhibitors of Bacillus subtilis Sfp phosphopantetheinyl transferase (PPTase) | 4'-phosphopantetheinyl transferase ffp (Bacillus subtilis), Q9F4F7 | AID 1490, 2009 | actives 3.5% (n = 310,000) | Biochemical Sfp PPTase activity, qHTS | Potency, µM, for inactives: max response, negative = inhibition, most hits filed as inhibitors; active = well fitted inhibition curve with a large enough effect; inconclusive = small, poorly fitted or top-dose-only effect, or another doubt; inactive = no such curve, though single readings can be large or run the other way;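 also: the enzyme is Sfp with the accession as filed and its product quenches rhodamine fluorescence; potency is read from the fitted curve at half-maximal effect; 0% = enzyme reaction without inhibitor and -100% = no enzyme wells; top concentration of the series not given in the record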
#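 Buffer: 50 mM Hepes-Na pH 7.6, 10 mM MgCl2, 0.01% Nonidet P-40, 0.01% BSA. Enzyme 15 nM, pre-exposed to compound 15 min; substrates then added and fluorescence change tracked over 30 min.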
# JMJD2E inh – JMJD2E (human) inhibition; Potency, µM (doses to about 57.1 µM), for the others: at the highest dose activity change, negative = inhibition, usual class: inhibitors; B2RXH2; 1.6% of 230,000 active; JMJD2E catalytic domain, FDH-coupled NADH fluorescence (FDH is formaldehyde dehydrogenase);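 further: potency means the concentration at half of the fitted maximal effect; 0% = wells with enzyme and -100% = buffer wells without enzyme; nearly all actives have a fitted effect of over 50% in size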
# G9a block – inhibitors of human histone lysine methyltransferase G9a; G9a H3K9 monomethylation, AlphaScreen, 2 h; Potency, µM (highest dose often 102 µM), without a hit: at the highest dose activity, negative = inhibition, most hits filed as inhibitors; 8.8% of 350,000 active; further: potency means the concentration at half of the fitted maximal effect; on the % scale 0 is the no-effect control and ±100 the full control effect; nearly all actives have a fitted effect of over 75% in size
#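 G9a (20 nM) preincubated 15 min RT with compounds, then 500 nM biotinylated H3K9 peptide and 20 uM SAM added; 2 h RT reaction. Monomethyl-H3K9 product detected by AlphaScreen with anti-H3K9me1 antibody, streptavidin donor and anti-rabbit IgG acceptor beads.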
# miR-21 reporter – raises the signal of a miR-21 reporter | HeLa miR-21 FLuc reporter, luciferase, 48 h | Potency, µM (highest dose often 38.3 µM), inactives show at the highest dose reporter change, positive = more light | 340,000 tested, under 10 active | AID 2288; active = well fitted rising curve with a large enough effect; inconclusive = small, poorly fitted or top-dose-only effect; inactive = no such curve, though single readings can be large or run the other way;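 note: % of control where 0% means no effect; miR-21 action dims this reporter so a rising signal means less miR-21 action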
#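 Compounds were titrated across several concentrations (up to approximately 40 uM) and incubated 48 hours with HeLa miR-21-FLuc reporter cells (miR-21 target sequence downstream of FLuc, endogenous miR-21). Readout was firefly luciferase luminescence after lytic detection reagent.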
# Lamin A splicing – LMNA splicing modulation. HeLa LMNA splicing GFP/RFP minigene ratio, 48 h. Potency, µM (highest dose often 46.1 µM), for inactives: at the highest dose ratio change, negative = inhibition, hits mostly inhibitors. 0.01% of 200,000 active; active means well fitted inhibition curve with a large enough effect in the signal ratio, with a control signal flat, not every such curve was filed as active; inconclusive means small, poorly fitted or top-dose-only effect, or effect the other way, or a change in a side signal; the % refers to the signal ratio; further: potency means the concentration at half of the fitted maximal effect; on the % scale 0 is the no-effect control and ±100 the full control effect
#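 S3 HeLa stable clones carrying a lamin A-EGFP splicing minigene plus DsRed2 were seeded at 600 cells/well in Opti-MEM with 2% FBS, pin-dosed and incubated 48 h at 37°C. Acumen cytometry (488 nm) gave the GFP/RFP total-intensity ratio.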
# Numbers without * were called inactive; ? = inconclusive; nt = no result given; [ ] = another dose, or the depositor's remark. Hits are enriched below; roughly 13% of the tested compounds scored in any of these assays. Unless noted, the call rests on the fitted dose curve; in most records, active means well fitted curve in the direction sought with a large enough effect; inconclusive means small, poorly fitted or top-dose-only effect, or another doubt; inactive means no such curve, though single readings can be large; an effect the other way counts as inactive or inconclusive.
1. COc1cc2nc(N3CCN(C(=O)C4COc5ccccc5O4)CC3)nc(N)c2cc1OC (stereo not drawn)
2. O=C(Cn1sc2ccccc2c1=O)NC12CC3CC(CC(C3)C1)C2
3. CN(C)/C=C/C(=O)c1ccc(Cl)cc1Cl
4. C/C(=C\C(=O)c1ccc(Cl)cc1Cl)N(C)C
5. Cc1ccccc1OCC(=O)Nc1ccc2oc(-c3ccc(F)cc3)nc2c1
6. COCCNC(=S)Nc1cccc2cnccc12
7. CCCCNC(=S)Nc1ccccc1F
8. CCCCNC(=S)Nc1cccc2cnccc12
9. CCN(C(=S)NCCOC)c1cccc2ccccc12
10. O=C(COC(=O)c1ccccc1NCCO)Nc1cc(C(F)(F)F)ccc1N1CCOCC1
Screen / compound no. | 1 | 2 | 3 | 4 | 5 | 6 | 7 | 8 | 9 | 10
ALDH1A1 block | ? | 0.0708µM* | -3.6% | 5.62µM* | nt | -14.4% | 7.1% | ? | ? | nt
Sfp inh | 56.2µM* | 2.51µM* | 23.7% | 11.6% | nt | -15.7% | 12.3% | -17.3% | 5.2% | 0.4%
JMJD2E inh | ? | -22.6% | -3.3% | -4.7% | nt | -11.9% | 3.3% | -5.8% | -0.9% | nt
G9a block | 27.5%[12.7 µM] | ? | 8.8% | -34.2% | -46.6%[59 µM] | 50.1µM* | 20.2% | 44.7µM* | -47.6% | ?
miR-21 reporter | -15.3% | 17.4% | 0.6% | -2.0% | -3.4% | 0.4% | -1.4% | -2.7% | -4.4% | 0.6%
Lamin A splicing | ? | 1.7% | 21.5%[46 µM] | -2.1%[46 µM] | nt | 18.8%[46 µM] | 1.1% | ? | nt | nt

11. NC(=O)COC(=O)c1cc(=O)[nH]c2ccccc12
12. Cc1ccc(C(=O)COC(=O)c2cc(=O)[nH]c3ccccc23)cc1C
13. CCN(CC)CCn1c(SCC(=O)Nc2ccc(F)cc2)nc2c(sc3ccccc32)c1=O
14. COc1ccccc1NC(=O)CSc1nc2c(sc3ccccc32)c(=O)n1CCN(C)C
15. COCCCn1c(SCC(=O)Nc2ccccc2OC)nc2c(sc3ccccc32)c1=O
16. C=CCN(C(=O)CSc1nc2c(sc3ccccc32)c(=O)n1CCN(CC)CC)c1ccccc1
17. CCOC(=O)c1c(-c2ccc(C)cc2)csc1NC(=O)c1cc(-c2ccc(Cl)cc2)on1
18. Oc1ccc(N=Cc2ccc(-c3cccs3)s2)cc1
19. O=C(NNC(=O)c1ccc(Cl)s1)c1csc(N2CCOCC2)n1
20. O=[N+]([O-])c1ccccc1Nc1ccccc1
Screen / compound no. | 11 | 12 | 13 | 14 | 15 | 16 | 17 | 18 | 19 | 20
ALDH1A1 block | -4.0% | -1.4% | ? | ? | nt | ? | nt | ? | nt | 16.1%
Sfp inh | 11.5% | 6.2% | -2.5% | 39.8µM* | nt | 50.1µM* | nt | 31.6µM* | nt | 19.4%
JMJD2E inh | ? | ? | ? | ? | nt | ? | nt | ? | nt | 2.8%
G9a block | 3.5% | 28.2µM* | 35.5µM* | ? | -17.5%[59 µM] | 44.7µM* | 5.7%[59 µM] | ? | -4.1% | 31.6µM*
miR-21 reporter | -2.0% | -2.8% | 0.4% | 1.2% | 21.0% | -0.1% | 4.4% | -18.2% | nt | -0.4%
Lamin A splicing | nt | nt | -8.8%[46 µM] | nt | 3.4%[46 µM] | nt | 19.2%[46 µM] | ? | nt | -8.5%[46 µM]

21. Cc1cc(Nc2ccccc2)c2c([N+](=O)[O-])ccc(C)c2n1
22. COc1ccc(N2C(=O)CSC23C(=O)N(CC(=O)NC2CCCCC2)c2ccccc23)cc1 (stereo not drawn)
23. CCCn1nnnc1NC(=O)c1cc(Cl)ccc1Cl
24. CCOC(=O)CC12CN3CN(C1)CC(CC(=O)OCC)(C3)C2=O
25. CC(C)OC(=O)CC12CN3CN(C1)CC(CC(=O)OC(C)C)(C3)C2=O
26. Cc1cc(=O)n(CCO)c(O)c1C#N
27. Cc1cc(=O)n(CCc2ccccc2)c(O)c1C#N
28. CCn1c(O)c(C#N)c(C)cc1=O
29. O=C(NC1CCCC1)C(c1ccccn1)N(C(=O)c1csnn1)c1ccc(F)cc1 (stereo not drawn)
30. FC(F)(F)c1cccc(Cn2c3[n+](c4ccc(C(F)(F)F)cc42)CCCCC3)c1
Screen / compound no. | 21 | 22 | 23 | 24 | 25 | 26 | 27 | 28 | 29 | 30
ALDH1A1 block | 5.7% | nt | ? | 11.9% | 2.51µM* | -4.8% | -17.8% | -10.8% | nt | -0.9%
Sfp inh | ? | nt | -6.0% | 12.5% | 18.2% | -18.4% | -10.7% | 0.8% | 18.0% | 2.0%
JMJD2E inh | -2.6% | nt | -5.7% | -4.2% | -11.6% | ? | 11.2µM* | ? | nt | -19.9%
G9a block | 11.2µM* | -16.3%[59 µM] | 8.91µM* | -48.1% | 6.6%[59 µM] | ? | ? | 44.7µM* | 27.8% | 22.4µM*
miR-21 reporter | -13.2% | -2.2% | -6.6% | -4.9% | -2.1% | -2.3% | -28.4% | -1.6% | -2.9% | 21.3%
Lamin A splicing | ? | 3.0%[46 µM] | -26.8% | -5.6% | ? | 8.6% | -10.8% | 12.8%[46 µM] | nt | nt

# Molecules from the list above with an NH in an aromatic ring, in the order listed:
11. NC(=O)COC(=O)c1cc(=O)[nH]c2ccccc12
12. Cc1ccc(C(=O)COC(=O)c2cc(=O)[nH]c3ccccc23)cc1C
Screen / compound no. | 11 | 12
ALDH1A1 block | -4.0% | -1.4%
Sfp inh | 11.5% | 6.2%
JMJD2E inh | ? | ?
G9a block | 3.5% | 28.2µM*
miR-21 reporter | -2.0% | -2.8%
Lamin A splicing | nt | nt

# (listing goes on)
31. Cc1cc(C(C)(C)C)cc(C)c1Cn1c2[n+](c3ccc(C(F)(F)F)cc31)CCCCC2
32. N#Cc1ccc(NC(=O)Cn2c3[n+](c4ccc(C(F)(F)F)cc42)CCCCC3)cc1
33. CCc1ccc(NC(=O)Cn2c3[n+](c4c(F)c(F)ccc42)CCCCC3)cc1
34. CCc1ccc(NC(=O)Cn2c(=O)oc3cc(S(=O)(=O)N4CCCCCC4)ccc32)cc1
35. N#Cc1ccc(NC(=O)Cn2cnc(S(=O)(=O)N3CCCC3)c2)cc1
36. O=C(Cn1c2[n+](c3ccc(C(F)(F)F)cc31)CCCCC2)Nc1ccc(Br)cc1
37. Cc1ccc2oc(C(=O)N(C)CCC(O)c3ccccc3)c(C)c2c1 (stereo not drawn)
38. O=CN1CCN(C(=O)CC(c2ccccc2)c2cc(Br)ccc2O)CC1 (stereo not drawn)
39. COC(=O)C1Cc2c([nH]c3ccccc23)CN1 (stereo not drawn)
40. COC(=O)[C@H]1Cc2c([nH]c3ccccc23)[C@H](c2ccccc2)N1
Screen / compound no. | 31 | 32 | 33 | 34 | 35 | 36 | 37 | 38 | 39 | 40
ALDH1A1 block | -1.4% | -19.2% | 10µM* | nt | nt | 1.6% | nt | nt | ? | nt
Sfp inh | -23.8% | -14.9% | ? | nt | 0.3% | ? | 14.2% | 0.9% | 10.9% | 9.5%
JMJD2E inh | -26.9% | 25.1µM* | 14.8% | nt | nt | -28.5% | nt | nt | ? | nt
G9a block | -47.0% | ? | ? | 2.7%[59 µM] | 13.1% | 35.5µM* | 29.8% | nt | 39.8µM* | 20.5%
miR-21 reporter | ? | 4.0% | 12.9% | 13.1% | 0.9% | 7.8% | -29.3% | 0.4% | -17.1% | 2.3%
Lamin A splicing | ? | 12.4%[46 µM] | ? | nt | nt | nt | nt | nt | 4.7% | nt

41. COc1ccc(OC)c(C2=NS(=O)(=O)N(C)C(C(=O)Nc3ccc(F)cc3F)=C2)c1
42. O=c1cc(Nc2ccc3c(c2)OCCO3)[nH]c(=O)n1C1CCCCC1
43. CCc1ccc(Nc2cc(=O)n(C3CCCCC3)c(=O)[nH]2)cc1
44. O=C(CCSc1ccc(F)cc1)NNC(=O)c1ccccc1Cl
45. N#CC12CCCCC1CC1CCCCC1(C#N)N2CCO (stereo not drawn)
46. N#CC12CCCCC1CC1CCCCC1(C#N)N2N (stereo not drawn)
47. CC(C)(C)N1C(=O)c2ccccc2NC(=O)N1Cc1ccccc1
48. O=C1Nc2ccccc2C(=O)C1(Cl)Cc1ccccc1 (stereo not drawn)
49. O=C(NC(Cc1ccccc1)C(=O)O)/C(=C/c1ccc([N+](=O)[O-])cc1)NC(=O)c1ccco1 (stereo not drawn)
Screen / compound no. | 41 | 42 | 43 | 44 | 45 | 46 | 47 | 48 | 49
ALDH1A1 block | nt | 1µM* | 1.26µM* | nt | 11.8% | nt | 4.0% | 14.1µM* | nt
Sfp inh | 6.3% | -3.0% | -6.1% | nt | 15.4% | 79.4µM* | 12.3% | 17.8µM* | 2.6%
JMJD2E inh | nt | -5.2% | -8.5% | nt | -8.0% | ? | -10.9% | ? | nt
G9a block | -12.8% | -8.2%[59 µM] | -28.4%[12.7 µM] | 2.8%[59 µM] | -0.5% | ? | -24.1%[59 µM] | ? | ?
miR-21 reporter | 16.2% | 12.2% | -0.1% | nt | -1.8% | 4.3% | -4.0% | 7.5% | 3.9%
Lamin A splicing | nt | ? | ? | nt | 0.7% | nt | -1.6% | -3.0% | nt

# Screening results deposited in PubChem BioAssay by National Center for Advancing Translational Sciences (NCATS).
